The results in this text go back to patent US10238658B2, “1-pyrazolyl-3-(4-((2-anilinopyrimidin-4-yl) oxy) napththalen-1-yl) ureas as p38 MAP kinase inhibitors” (Respivert Limited, priority 2011, dated 2019).

Structures are written as SMILES.

The test system of the test is IL-8. As to the kind of experiment: LPS-induced IL-8 release in d-U937 cells. It is filed as cell-based. The conditions noted are these: Homo sapiens, dU937, dU937 cells. The protocol: U937 cells, a human monocytic cell line, were differentiated into macrophage-type cells by incubation with PMA (100 ng/mL) for 48 to 72 hr. Cells were pre-incubated with final concentrations of test compound for 2 hr and were then stimulated with LPS (0.1 μg/mL; from E. Coli: O111:B4, Sigma) for 4 hr. The supernatant was collected for determination of TNFα and IL-8 concentrations by sandwich ELISA (Duo-set, R&D systems). […] The relative 50% effective concentration (REC50) was determined from the resultant concentration-response curve. The inhibition of IL-8 production was calculated at each concentration of test compound by comparison with vehicle control.

`Cc1ccc(-n2nc(C(C)(C)C)cc2NC(=O)Nc2ccc(Oc3ccnc(Nc4ccccc4)n3)c3ccccc23)cc1` [Example 1, 1-(3-(tert-Butyl)-1-(p-tolyl)-1H-pyrazol-5-yl)-3-(4-(2-(phenylamino)pyrimidin-4-yloxy)naphthalen-1-yl)urea]: the IC50 – broadly, the concentration needed to halve the response being measured – is 2.2 nM.
